# Antibody variant affinities, Ab-14 light chain, assay 1

Source: Engelhart et al. 2022 (doi:10.1038/s41597-022-01779-4), MIT Lincoln Laboratory and A-Alpha Bio; data file from the FLAb repository.

Target: peptide PDVDLGDISGINAS, taken from heptad repeat 2 (HR2) of SARS-CoV-2 spike.

Ab-14 is the parent antibody, in scFv form: VH, then the linker GGGGSGGGGSGGGGS, then VL. The heavy chain is unchanged in all variants.
VH: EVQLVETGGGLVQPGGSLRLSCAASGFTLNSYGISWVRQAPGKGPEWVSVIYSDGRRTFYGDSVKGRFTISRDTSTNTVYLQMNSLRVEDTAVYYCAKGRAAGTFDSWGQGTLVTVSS
VL: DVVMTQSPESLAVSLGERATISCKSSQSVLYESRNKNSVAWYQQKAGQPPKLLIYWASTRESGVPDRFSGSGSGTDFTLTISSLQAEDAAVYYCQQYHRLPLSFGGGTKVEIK

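Phage display of a naive human antibody library on the peptide gave the parent. In library AAYL50, one, two or three CDR residues were substituted; doubles and triples were drawn at random. Affinity was read by AlphaSeq, a pooled yeast mating assay with surface-displayed partners. After mating in shaken culture at 30 °C for 16 h, diploids were selected and their barcode pairs sequenced. The ratio of observed to expected reads was calibrated, replicate by replicate, on BCL2-family standards whose Kd was known from biolayer interferometry. The assay was run in three technical replicates.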

Changes read parent residue, position, new residue, counted from the first residue of the VL shown. This list gathers variants with a substitution at E32 (VL, numbered from residue 1). The Kd shown is the geometric mean over detected replicates; a lower Kd is a better binder. Where no diploid with the target was found in any replicate, the entry reads "nd": below detection, most likely a poor binder, though not proof of it. Nonspecific signal, from three strains lacking the peptide, appeared in 18% of pairings of library AAYL50, centred on 15 µM (5% of these signals below 970 nM); values are not corrected for it. In this assay the parent's reference entry averaged 4.4 nM; its copy inside this library read 48 nM.

For V29R+E32K+W56Y, the assay gave 200 nM (1 of 3 replicates). Variant E32S+V39A+Q95K showed 21 µM (2 of 3 replicates). Variant E32P gave 17 nM (3 of 3 replicates). For K24I+E32C+L100A, the assay gave nd (0 of 3 replicates). With E32H the result was 19 nM (3 of 3 replicates). Variant V29N+E32G+S62N gave 4.6 nM (3 of 3 replicates). For V29H+E32Y+S103H, the assay gave 1.3 µM (2 of 3 replicates). For E32T+V39P+H98S, the assay gave 150 µM (2 of 3 replicates).

For E32C+W56T+L102G, the assay gave 13 µM (1 of 3 replicates). With E32H+S33Q+W56G the result was 2.3 nM (3 of 3 replicates). Variant V29N+E32N+P101T gave 12 µM (1 of 3 replicates). For S28D+E32I+K36Y, the assay gave 3.5 µM (1 of 3 replicates). Variant E32W+E61A gave 110 nM (3 of 3 replicates). Variant K24R+E32L+R99L gave 5.1 µM (3 of 3 replicates). With S26N+E32D+T59M the result was 5.1 nM (3 of 3 replicates). Variant K24A+E32I+Q96N gave nd (0 of 3 replicates).

Variant E32Q+R60W+Y97E gave 84 µM (1 of 3 replicates). Variant E32G+S58G+S103V gave 22 nM (3 of 3 replicates). For S26M+E32D+H98S, the assay gave 3.5 nM (3 of 3 replicates). With E32N+N35L+W56Y the result was 3.6 nM (3 of 3 replicates). For V29C+E32C+R99F, the assay gave 98 nM (1 of 3 replicates). For S25R+E32G+L102N, the assay gave 140 nM (2 of 3 replicates). Variant S26V+E32M+E61N showed 78 nM (2 of 3 replicates). Variant K24G+E32I+R60Q gave 17 µM (2 of 3 replicates).

For E32M+S38K+E61C, the assay gave 86 µM (1 of 3 replicates). Variant L30P+E32A+N37C gave 120 nM (3 of 3 replicates). Variant E32M+H98Y+L102N showed nd (0 of 3 replicates). Variant E32A+W56N+Q95K showed nd (0 of 3 replicates). With S28Q+E32Q+H98N the result was 19 nM (3 of 3 replicates). For E32C+K36D+R60S, the assay gave nd (0 of 3 replicates). Variant E32A+N35Y+K36E showed 18 nM (3 of 3 replicates). For E32K+K36E+V39Y, the assay gave 180 nM (2 of 3 replicates).

For E32N+R34W+N37L, the assay gave nd (0 of 3 replicates). With E32V+R34I the result was nd (0 of 3 replicates). Variant K24L+E32Y+T59S showed nd (0 of 3 replicates). With L30Q+E32C+N35W the result was 620 nM (3 of 3 replicates). For K24V+Y31M+E32M, the assay gave 180 nM (3 of 3 replicates). Variant K24V+E32C+R60C gave nd (0 of 3 replicates). With E32T+T59Y+R60H the result was nd (0 of 3 replicates). Variant E32M+V39R+Q96F gave nd (0 of 3 replicates).

The opening 4 entries, copied out:

| changes | apparent Kd | detected |
|---|---|---|
| V29R+E32K+W56Y | 200 nM | 1/3 |
| E32S+V39A+Q95K | 21 µM | 2/3 |
| E32P | 17 nM | 3/3 |
| K24I+E32C+L100A | nd | 0/3 |